Source: patent US9415009B2 (Pearl Therapeutics, Inc., priority 2009, dated 2016)

Test: Particle size distribution by laser diffraction (Sympatec, Fraunhofer mode)
Type: physicochemical
[1] = Example 4, Table 2, micronized API
[2] = Example 9, Table 9, primary particle size
[3] = Example 10, Table 11, Triple GFM primary particle size
[4] = Example 10, Table 12, Triple TFM primary particle size

Row | SMILES | d10 (μm) [1] | d50 (μm) [1] | d90 (μm) [1] | ×10 (μm) [2] | ×50 (μm) [2] | ×90 (μm) [2] | d10 (μm) [3] | d50 (μm) [3] | d90 (μm) [3] | d10 (μm) [4] | d50 (μm) [4] | d90 (μm) [4] | d10 (μm) (Example 11, Table 14) | d50 (μm) (Example 11, Table 14) | d90 (μm) (Example 11, Table 14)
1 | COc1ccc(C[C@@H](C)NC[C@H](O)c2ccc(O)c(NC=O)c2)cc1 (racemic) [Coarse FF API, (±)-2-hydroxy-5-[(1RS)-1-hydroxy-2-[[(1RS)-2-(4-methoxyphenyl)-1-methylethyl]-amino]ethyl]formanilide] | 0.6 μm | 1.9 μm | 4.4 μm |  |  |  |  |  |  |  |  |  |  |  | 
2 | COc1ccc(C[C@@H](C)NC[C@H](O)c2ccc(O)c(NC=O)c2)cc1 (racemic) [FF API, (±)-2-hydroxy-5-[(1RS)-1-hydroxy-2-[[(1RS)-2-(4-methoxyphenyl)-1-methylethyl]-amino]ethyl]formanilide] |  |  |  | 0.6 μm | 1.9 μm | 4.1 μm | 0.5 μm | 1.4 μm | 2.7 μm | 0.6 μm | 1.9 μm | 4.1 μm | 0.6 μm | 1.9 μm | 4.1 μm
3 | COc1ccc(C[C@@H](C)NC[C@H](O)c2ccc(O)c(NC=O)c2)cc1 (racemic) [Fine FF API, (±)-2-hydroxy-5-[(1RS)-1-hydroxy-2-[[(1RS)-2-(4-methoxyphenyl)-1-methylethyl]-amino]ethyl]formanilide] | 0.5 μm | 1.3 μm |  |  |  |  |  |  |  |  |  |  |  |  | 
